Molecular target: T1, recombinant human KDM4A (Homo sapiens, UniProt O75164)
T1 construct: recombinantly expressed as reported either in Escherichia coli (KDM2A1–557 25, KDM4A1–359 26); His6 (N); made in house; host or cells: Escherichia coli
T1 sequence (O75164 1-359): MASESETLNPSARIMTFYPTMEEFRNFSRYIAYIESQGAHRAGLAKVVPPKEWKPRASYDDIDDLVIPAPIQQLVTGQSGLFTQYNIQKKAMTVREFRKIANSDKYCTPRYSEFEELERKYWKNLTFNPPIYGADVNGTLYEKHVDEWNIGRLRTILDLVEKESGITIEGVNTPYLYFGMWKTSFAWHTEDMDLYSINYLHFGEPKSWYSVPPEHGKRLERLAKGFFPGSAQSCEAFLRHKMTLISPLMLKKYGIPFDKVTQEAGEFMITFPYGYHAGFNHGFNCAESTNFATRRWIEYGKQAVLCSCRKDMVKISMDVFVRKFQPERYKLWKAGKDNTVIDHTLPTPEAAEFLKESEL
Assay: Formaldehyde dehydrogenase (FDH)-coupled demethylation assay, Michaelis–Menten kinetics
Assay type: biochemical
Conditions: peptide as substrate
Protocol: Kinetic parameters for KDM4 enzymes were determined by use of an FDH (formaldehyde dehydrogenase)/NAD^+‐coupled) assay for quantification of the formaldehyde reaction byproduct, as previously described 27. […] Specific activities were measured using a 100‐μM peptide. For Michaelis–Menten experiments, peptide concentrations were varied. Reactions were monitored using a PHERAstar FS plate reader (BMG Labtech, Ortenberg, Germany) with 355 nm excitation and 460 nm emission. Kinetic parameters were calculated from the reaction rate during the initial linear phase of formaldehyde production, which were used to calculate specific activities or fitted to Michaelis–Menten equations using GRAPHPAD PRISM (GraphPad Software, La Jolla, CA, USA).
Michaelis–Menten kinetics were then conducted with KDM4A. Samples containing KDM4A, 2OG, ascorbate, H1.4K26me3 peptide, NAD^+ and FDH were analysed over time and kinetic parameters were determined by recording the initial reaction rates of NADH production (corresponding to enzymatic production of formaldehyde) at varying peptide concentration. Similar experiments were carried out with H3K9me3 and H3K36me3 substrate peptides and the obtained values compared (Table 2). […] Demethylation of the H3K36me3 peptide was the least efficient, with higher K M (66.8 ± 5.4 μM) and lower k cat (0.12 ± 0.004 s^−1) values than with the other two peptides.

[1] = concentration varied, FDH/NAD+-coupled fluorescence assay, 50 mM HEPES pH 7.5, 0.01% Tween-20, 2OG 200 μM, KDM4A, mean and standard deviation of three independent replicates, SD

K M [1]: 25.5 ± 4.9 µM | k cat [1]: 0.31 ± 0.045 s⁻¹ | k cat/K M (FDH-coupled assay, ratio of k cat (s^−1) and K M (μM)): 12400 M⁻¹ s⁻¹
Substance: ARTKQTAR-Kme3-STGGKA [H3(1–15)K9me3, histone H3 residues 1–15 peptide with Kme3 at K9, well-characterised KDM4 substrate]

Source: article PMC6220849, “Mechanistic and structural studies of KDM‐catalysed demethylation of histone 1 isotype 4 at lysine 26” (Febs Letters, 2018)
